Like-named read-outs stand apart in the source and are kept apart here.
Assay: Phase 1 food-effect crossover study: plasma PK after single 300 mg oral dose
Assay type: in vivo
Details: human, read-out: T1/2, Mean (Coefficient of Variation) (converted)
Procedure: These meals were to be consumed within 20 minutes. Dose administration for Treatments B, C, and D was based off of the end time of the meal. […] For statistical analysis, individual PK parameters for omadacycline were summarized with descriptive statistics. Geometric means were determined for AUC and Cmax. PK parameters were evaluated using non-compartmental analysis using Phoenix® WinNonlin® (Pharsight Corp, St. Louis, Mo.), Version 6.2.1. Confidence intervals (CI) for test treatments (fed states: Treatments B, C, and D) compared with the reference treatment (fasted state: Treatment A) were constructed for AUC0-24, AUC0-t, AUC0-inf, and Cmax.

Question: With CN(C)c1cc(CNCC(C)(C)C)c(O)c2c1C[C@H]1C[C@H]3[C@H](N(C)C)C(O)=C(C(N)=O)C(=O)[C@@]3(O)C(O)=C1C2=O [Omadacycline, 9-[(2,2-dimethyl-propylamino)-methyl]-minocycline] as the compound, how does the half-life (Treatment A: fasted overnight) read?
Answer: 13.8 h

Question: What about the half-life (Treatment B: high-fat nondairy meal 4 h before dosing) of the same compound?
Answer: 13.6 h

Question: What about the half-life (Treatment C: high-fat nondairy meal 2 h before dosing) of the same compound?
Answer: 13.6 h

Question: And the half-life (Treatment D: high-fat meal incl. dairy 2 h before dosing)?
Answer: 13.5 h
